Source: patent publication US20240131499A1, “BIOMIMETIC CATALYSTS FOR DIVERSE INDUSTRIAL APPLICATIONS IN CHEMICAL REACTIONS” (Wisconsin Alumni Research Foundation, priority 2022, published 2024)

Experiment: Reaction kinetics analysis for lactose hydrolysis
Conditions: 100° C.; homogeneous (non-immobilized) catalyst; amino acids 82-84 mM; 95% confidential intervals
Method: The glass vial was capped to prevent the solvent from evaporation, and the hydrolysis reaction was carried out at 100° C. in an oil bath (120 and 90° C. were used to measure activation energies) with 600-800 rpm stirring. […] 0.105 g (=0.1 mL) of liquid sample solution was collected at each day (every 18-26 h) for 5 days and diluted in 0.399 g (=0.4 mL) of MQ water for the reaction kinetics analysis, and the diluted sample was filtered by syringe filter (20 μm pore) and analyzed by HPLC.
The chemical concentrations of hydrolyzed lactose solutions were quantified by high performance liquid chromatography (HPLC) analysis. The hydrolyzed solutions with immobilized catalysts were centrifuged (2500 rpm, 20 min) to separate the immobilized catalyst in the aqueous phase solution. 0.105 g (0.1 mL) of the aqueous solution was diluted in 0.399 g (0.4 mL) of Milli-Q water (5 times dilution by volume) to analyze the concentrations of lactose, glucose, galactose, and HMF as one of by-products by glucose degradation. […] The temperature of the HPLC column was maintained at 50° C., and the flow rate of the mobile phase (pH 2 water, acidified by sulfuric acid) was 0.6 mL/min.

kd,app, apparent rate constant for glucose degradation: 8.3e-08 ± 4.17e-07 s⁻¹
Compound: CC(=O)O [acetic acid]
